Laboratory results from PubChem BioAssay AID623870 (Broad Institute, 2012).
This is a selection; strong and weak results do not stand in their true shares. Some of these compounds have results that are not shown, active ones among them. Active and inactive are the calls of the source.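 The calls were made as follows: active = mean inhibition of replicates at least 50% and at least half of replicates each reaching 50%; inconclusive = half or more replicates reach 50% but mean below 50%; inactive = the rest.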

molecular target: Transforming acidic coiled-coil-containing protein 3 (Homo sapiens) (UniProt Q9Y6A5); assay: inhibitors of ARNT PAS-B binding to TACC3 – biochemical, AlphaScreen, single concentration, primary screen (AID 623870); conditions: AlphaScreen His-ARNT PAS-B/GST-TACC3 binding, luminescence; at 9.99 µM; stronger effect = higher value; TACC3 fragment carries E629A point mutation;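 also: 0% = complete ARNT plus TACC3 wells and 100% = ARNT alone without TACC3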

Row | SMILES | inhibition
1 | CN(C)C1(CNC(=O)c2ccc(Br)cc2)CCCCC1 | inactive: -5.24%
2 | COc1cc(C(=O)NCC2(N(C)C)CCCCC2)c([N+](=O)[O-])cc1OC | inactive: -0.232%
3 | COc1ccc(Cl)cc1C(=O)NCC1(N(C)C)CCCCC1 | inactive: -0.893%
4 | COc1cccc(C(=O)NCC2(N3CCCCC3)CCCCC2)c1 | inactive: -10.8%
5 | O=C(NCC1(N2CCCCC2)CCCCC1)c1cccc(Cl)c1 | inactive: 0.172%
6 | O=C(OC1CN2CCC1CC2)C(CO)(c1ccccc1)c1ccccc1 (centres undefined) | inactive: 5.41%
7 | COc1ccc(Br)c(C(=O)NCC2(N3CCCCC3)CCCCC2)c1 | inactive: 3.69%
8 | O=C(OCCN1CCCC1)C(O)(c1ccccc1)c1ccccc1 | inactive: -0.337%
9 | CC(C)Oc1ccc(C(=O)NCC2(N(C)C)CCCCC2)cc1 | inactive: 0.556%
10 | CN(C)c1cccc(C(=O)NCC2(N(C)C)CCCCC2)c1 | inactive: -1.67%
11 | O=C(NCC1(N2CCCCC2)CCCCC1)c1cc([N+](=O)[O-])ccc1Cl | inactive: 2.22%
12 | CN1[C@@H]2CC[C@H]1CC(OC(=O)C(O)(c1ccccc1)c1ccccc1)C2 (some centres undefined) | inactive: -9.85%
13 | COc1cc(SC)ccc1C(=O)NCC1(N(C)C)CCCCC1 | inactive: -5.63%
14 | CCN(CC)CC(C)C(C)OC(=O)C(O)(c1ccccc1)c1ccccc1 (centres undefined) | inactive: -1.56%
15 | CC(C)N1C(=O)CC2(CCN(CCOC(=O)C(O)(c3ccccc3)c3ccccc3)CC2)C1=O | inactive: -5.23%
16 | CN(C)c1ccc(C(=O)NCC2(N(C)C)CCCCC2)cc1 | inactive: -3.49%
17 | CN(C)C1CCCC1OC(=O)C(O)(c1ccccc1)c1ccccc1 (centres undefined) | inactive: -8.29%
18 | Cc1ccccc1C(=O)NCC1(N2CCCCC2)CCCCC1 | inactive: -2.88%
19 | O=C(NCC1(N2CCCCC2)CCCCC1)c1cc(F)c(F)cc1Cl | inactive: 0.936%
20 | C=CCN1CCN(CCOC(=O)C(O)(c2ccccc2)c2ccccc2)CC1 | inactive: -4.61%
21 | COc1ccc(C(=O)NCC2(N(C)C)CCCCC2)cc1 | inactive: 1.33%
22 | O=C(NCC1(N2CCCCC2)CCCCC1)c1cccc(Br)c1 | inactive: -3.08%
23 | CCN1CCCC(OC(=O)C2(O)c3ccccc3C=Cc3ccccc32)C1 (centres undefined) | inactive: -0.741%
24 | Cc1cc(C(=O)NCC2(N3CCCCC3)CCCCC2)ccc1[N+](=O)[O-] | inactive: -8.28%
